The list shows a part of the results, in another mix than the full data. Calls of active or inactive are those of the source.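 Rule for the calls: active = inhibition of the ligand-induced calcium signal above about 50% at the single tested concentration (limit read from the data); inactive = the rest.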
Experiment: antagonists of CRF-BP/CRF-R2 complex, primary screen, cell-based, HEK293, calcium dye fluorescence, uHTS (AID 588475)
Conditions: CRF-induced calcium fluorescence, at 11.8 µM, active compounds read high

**Q.** For `CP(=O)(Nc1cccc(Br)c1)Oc1ccccc1` (configuration not stated), which inhibition is on record?
**A.** Its inhibition is inactive: -15.6%.

**Q.** For `Cc1ccc(C)c(NP(C)(=O)Oc2ccccc2)c1` (configuration not stated), which inhibition is on record?
**A.** Its inhibition is inactive: 1.52%.

**Q.** Which inhibition does the source give for `O=[N+]([O-])c1cc([N+](=O)[O-])c(-n2nnc3ccccc32)c([N+](=O)[O-])c1` here?
**A.** Its inhibition is inactive: 12.5%.

**Q.** Which inhibition does the source give for `O=[N+]([O-])c1cc([N+](=O)[O-])c(-c2cnn(-c3ccccc3)c2)c([N+](=O)[O-])c1` here?
**A.** The inhibition was inactive: 10.1%.

**Q.** Which inhibition does the source give for `Cc1nc2ccc3ccccc3c2s1.O=[N+]([O-])c1cc([N+](=O)[O-])c(O)c([N+](=O)[O-])c1` here?
**A.** The inhibition was inactive: 25.7%.

**Q.** Which inhibition does the source give for `CCOC(=O)C(CC)C1=NC(C)(C)Cc2ccccc21.O=[N+]([O-])c1cc([N+](=O)[O-])c(O)c([N+](=O)[O-])c1` (configuration not stated) here?
**A.** The inhibition was inactive: 8.85%.

**Q.** With `CC1=C2N=C(C=C3N=C(C(C)=C4[N-][C@@](C)([C@@H]5N=C1[C@](C)(CCC(=O)NC[C@@H](C)OP(=O)([O-])O[C@H]1[C@@H](O)[C@@H](n6cnc7cc(C)c(C)cc76)O[C@@H]1CO)[C@H]5CC(N)=O)[C@@](C)(CC(N)=O)[C@@H]4CCC(N)=O)[C@@](C)(CC(N)=O)[C@@H]3CCC(N)=O)C(C)(C)[C@@H]2CCC(N)=O.[C-]#N.[Co+3]` as the compound, how does the inhibition read?
**A.** The inhibition was inactive: 15.5%.

**Q.** For `O=[N+]([O-])c1cc([N+](=O)[O-])c(Nc2nnnn2CCO)c([N+](=O)[O-])c1`, which inhibition is on record?
**A.** The inhibition was inactive: 14.6%.

**Q.** With `CN1CCCCC1COC(=O)C1(O)c2ccccc2CCc2ccccc21` (configuration not stated) as the compound, how does the inhibition read?
**A.** Its inhibition is inactive: 4.07%.

**Q.** For `COc1ccccc1OP(C)(=O)Nc1c(C)cccc1C` (configuration not stated), which inhibition is on record?
**A.** Its inhibition is inactive: 0.9%.

**Q.** For `CCCOc1ccc(NP(C)(=O)Oc2ccc(Cl)cc2)cc1` (configuration not stated), which inhibition is on record?
**A.** The inhibition was inactive: -11.5%.

**Q.** Which inhibition does the source give for `CP(=O)(Nc1ccc(SC(F)(F)F)cc1)Oc1ccccc1` (configuration not stated) here?
**A.** The inhibition was inactive: -13.5%.

**Q.** Which inhibition does the source give for `CP(=S)(Nn1cnnc1)Oc1ccccc1` (configuration not stated) here?
**A.** The inhibition was inactive: 2.07%.

**Q.** For `COc1ccccc1OP(C)(=O)Nc1ccccc1` (configuration not stated), which inhibition is on record?
**A.** The inhibition was inactive: 3.58%.

**Q.** Which inhibition does the source give for `CP(=O)(Nc1ccccc1Br)Oc1ccccc1` (configuration not stated) here?
**A.** Its inhibition is inactive: -17.3%.

**Q.** For `CP(=O)(Oc1ccccc1)OC(c1ccccc1)C(F)(F)F` (configuration not stated), which inhibition is on record?
**A.** The inhibition was inactive: 4.72%.

**Q.** Which inhibition does the source give for `CP(=O)(Nc1ccc(SC(F)(F)F)cc1)Oc1ccc(Cl)cc1` (configuration not stated) here?
**A.** The inhibition was inactive: -10%.

**Q.** For `Cc1ccc(Nc2c([N+](=O)[O-])cc([N+](=O)[O-])cc2[N+](=O)[O-])cc1`, which inhibition is on record?
**A.** The inhibition was inactive: 39.7%.

**Q.** For `Cc1cccc(C)c1OP(C)(=O)Nc1ccc(SC(F)(F)F)cc1` (configuration not stated), which inhibition is on record?
**A.** The inhibition was inactive: -40.2%.

**Q.** Which inhibition does the source give for `Cc1cc(C)cc(OP(C)(=O)Nc2ccc(SC(F)(F)F)cc2)c1` (configuration not stated) here?
**A.** Its inhibition is inactive: -56.9%.

**Q.** For `CP(=O)(NC(=O)Nc1ccccc1)Oc1ccccc1` (configuration not stated), which inhibition is on record?
**A.** The inhibition was inactive: 7.63%.

**Q.** For `CCc1ccc(OP(C)(=O)N2CCN(c3ccc([N+](=O)[O-])cc3)CC2)cc1` (configuration not stated), which inhibition is on record?
**A.** The inhibition was inactive: -4.46%.

**Q.** For `CCOP(C)(=S)SCC(=O)NC(C)C(=O)O` (configuration not stated), which inhibition is on record?
**A.** The inhibition was inactive: -10.6%.

**Q.** With `O=[N+]([O-])c1cc([N+](=O)[O-])c(O)c([N+](=O)[O-])c1.c1ccc(Oc2ccncc2)cc1` as the compound, how does the inhibition read?
**A.** The inhibition was inactive: 25.4%.

**Q.** Which inhibition does the source give for `CCOC(=O)c1ccc(NP(C)(=O)Oc2ccc(OC)cc2)cc1` (configuration not stated) here?
**A.** Its inhibition is inactive: -12.1%.

**Q.** Which inhibition does the source give for `CP(=O)(Nc1ccccn1)Oc1ccc(Cl)cc1` (configuration not stated) here?
**A.** Its inhibition is inactive: 17.2%.

**Q.** Which inhibition does the source give for `CCN(CC)CCCOC(=O)C(O)(c1ccccc1)c1ccccc1` here?
**A.** The inhibition was inactive: -17.4%.

**Q.** With `O=[N+]([O-])c1cc([N+](=O)[O-])c(Nc2cccnc2)c([N+](=O)[O-])c1` as the compound, how does the inhibition read?
**A.** The inhibition was active: 59.7%.

**Q.** Which inhibition does the source give for `Cc1cccc(C)c1OP(C)(N)=O` (configuration not stated) here?
**A.** Its inhibition is inactive: 2.82%.

**Q.** For `CC(C)(C)c1ccc(OP(C)(=O)Nc2ccc(SC(F)(F)F)cc2)cc1` (configuration not stated), which inhibition is on record?
**A.** Its inhibition is inactive: -73.4%.

**Q.** With `O=[N+]([O-])c1ccc2c(c1)C=Nc1ccccc1O2` as the compound, how does the inhibition read?
**A.** Its inhibition is inactive: 18.7%.

**Q.** For `CCOC(=O)c1ccc(NP(C)(=O)Oc2ccccc2)cc1` (configuration not stated), which inhibition is on record?
**A.** Its inhibition is inactive: -3.17%.

**Q.** Which inhibition does the source give for `Cc1ccc(NP(C)(=O)Oc2ccccc2)c(C)c1` (configuration not stated) here?
**A.** Its inhibition is inactive: -4.11%.

**Q.** For `COc1ccccc1OP(C)(=O)Nc1ccc(C)cc1` (configuration not stated), which inhibition is on record?
**A.** Its inhibition is inactive: -0.61%.

**Q.** Which inhibition does the source give for `COc1ccc(OP(C)(=O)Nc2cccc(F)c2)cc1` (configuration not stated) here?
**A.** Its inhibition is inactive: 18%.

**Q.** Which inhibition does the source give for `COc1ccccc1OP(C)(=O)Nc1cc(Cl)ccc1C` (configuration not stated) here?
**A.** The inhibition was inactive: -4.73%.

**Q.** For `Cc1cc(C)cc(OP(C)(N)=O)c1` (configuration not stated), which inhibition is on record?
**A.** The inhibition was inactive: 13.7%.
